Experimental data as given in US20050165103A1, “Fatty acid analogues for the treatment of inflammatory and autoimmune disorders” (priority 2000, published 2005).

System: peripheral blood mononuclear cells (PBMC)
Assay: Lymphocyte proliferation (3H-thymidine incorporation) in PBMC
Assay type: cell-based, human
Details: added to cell cultures before PHA stimulation with TTA; anti-IL-10 5 μg/mL, IL-2 10 ng/mL; FIG. 4
Method: Blood donor (n=5) peripheral blood mononuclear cells (PBMC) were obtained from heparinized blood by Isopaque-Ficoll (Lymphoprep, Nycomed Pharma AS, Oslo, Norway) gradient centrifugation within 1 hour after blood sampling. PBMC were resuspended in RPMI 1640 with 2 mM L-glutamine and 25 mM HEPES buffer (Gibco BRL, Paisley, UK) supplemented with 10% heat inactivated pooled human AB^+ serum (culture medium). The endotoxin level in culture medium, reagents and stimulants was <10 pg/mL (Quantitative chromogenic limulus amebocyte lysate test, BioWhittaker, Inc., Walkerswille, Md.).
PMNC (10^6 cells/mL) were incubated in flat-bottomed, 96-well microtiter trays (200 μL/well; Costar, Cambridge, Mass.) in medium alone or with phytohemagglutinin (PHA; Murex Diagnostics Ltd, Dartford, UK; final concentration 1:100) either alone or with different concentrations of TTA. Bovine serum albumin (BSA, Calbiochem, La Jolla, Calif.) was used as a negative control for TTA (vehicle). […] After 48 hours, cells were pulsed with 1 μCi of ^3H-thymidine (Amersham International plc., Little Chalfont, UK), and 16 hours later cultures were harvested onto glass filter strips, using an automated multisampler harvester (Skatron, Lier, Norway). ^3H-thymidine incorporation was determined by liquid scintillation counting as counts per minute (cpm).

## IL-2: recombinant human IL-2 (R&D Systems)
  effect on the TTA mediated inhibition of PHA stimulated PBMC proliferation: only a modest counteracting effect
